Results as given in ChEMBL document CHEMBL1944596, “7,8-dichloro-1-oxo-β-carbolines as a versatile scaffold for the development of potent and selective kinase inhibitors with unusual binding modes” (J Med Chem, 2012).

By UniProt entry, the sequences of proteins in these tests, tags left out. Where a name states a change or a piece, a line headed by the entry shows the natural chain unless it says otherwise.
UniProt P08581: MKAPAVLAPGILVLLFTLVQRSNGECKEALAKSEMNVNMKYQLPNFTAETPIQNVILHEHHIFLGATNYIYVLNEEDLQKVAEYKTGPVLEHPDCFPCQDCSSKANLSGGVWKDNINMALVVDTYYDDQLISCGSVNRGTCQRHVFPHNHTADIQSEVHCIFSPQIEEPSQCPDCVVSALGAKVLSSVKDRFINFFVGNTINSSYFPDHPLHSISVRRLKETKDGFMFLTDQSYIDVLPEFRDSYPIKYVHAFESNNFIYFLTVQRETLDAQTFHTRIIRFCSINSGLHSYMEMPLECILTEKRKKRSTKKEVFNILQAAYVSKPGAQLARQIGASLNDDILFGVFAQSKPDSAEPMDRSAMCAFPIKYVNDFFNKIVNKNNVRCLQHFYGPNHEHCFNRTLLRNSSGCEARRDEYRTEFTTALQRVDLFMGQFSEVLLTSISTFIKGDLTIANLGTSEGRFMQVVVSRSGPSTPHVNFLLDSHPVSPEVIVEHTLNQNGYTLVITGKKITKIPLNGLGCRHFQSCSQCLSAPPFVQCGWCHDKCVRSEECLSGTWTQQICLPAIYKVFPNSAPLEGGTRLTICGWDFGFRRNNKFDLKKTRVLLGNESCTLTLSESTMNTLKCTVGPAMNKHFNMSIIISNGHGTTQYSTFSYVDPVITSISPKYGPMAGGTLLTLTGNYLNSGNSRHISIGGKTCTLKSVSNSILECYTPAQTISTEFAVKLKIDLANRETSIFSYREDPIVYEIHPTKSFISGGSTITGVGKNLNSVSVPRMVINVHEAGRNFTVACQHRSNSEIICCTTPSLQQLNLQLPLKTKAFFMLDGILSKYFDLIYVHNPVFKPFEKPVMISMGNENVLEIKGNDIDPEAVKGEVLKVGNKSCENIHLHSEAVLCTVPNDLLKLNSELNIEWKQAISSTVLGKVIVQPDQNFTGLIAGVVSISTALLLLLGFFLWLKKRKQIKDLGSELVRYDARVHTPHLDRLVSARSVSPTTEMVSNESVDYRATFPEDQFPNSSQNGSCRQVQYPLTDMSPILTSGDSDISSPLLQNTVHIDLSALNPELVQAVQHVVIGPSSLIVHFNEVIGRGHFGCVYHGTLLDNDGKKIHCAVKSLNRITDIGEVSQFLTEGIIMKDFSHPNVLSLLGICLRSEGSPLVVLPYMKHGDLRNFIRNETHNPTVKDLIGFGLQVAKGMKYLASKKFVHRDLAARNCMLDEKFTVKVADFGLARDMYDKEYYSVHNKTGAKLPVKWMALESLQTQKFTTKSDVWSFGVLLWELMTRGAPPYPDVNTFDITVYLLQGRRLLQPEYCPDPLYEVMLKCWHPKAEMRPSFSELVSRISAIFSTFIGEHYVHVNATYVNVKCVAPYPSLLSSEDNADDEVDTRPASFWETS
UniProt P41240: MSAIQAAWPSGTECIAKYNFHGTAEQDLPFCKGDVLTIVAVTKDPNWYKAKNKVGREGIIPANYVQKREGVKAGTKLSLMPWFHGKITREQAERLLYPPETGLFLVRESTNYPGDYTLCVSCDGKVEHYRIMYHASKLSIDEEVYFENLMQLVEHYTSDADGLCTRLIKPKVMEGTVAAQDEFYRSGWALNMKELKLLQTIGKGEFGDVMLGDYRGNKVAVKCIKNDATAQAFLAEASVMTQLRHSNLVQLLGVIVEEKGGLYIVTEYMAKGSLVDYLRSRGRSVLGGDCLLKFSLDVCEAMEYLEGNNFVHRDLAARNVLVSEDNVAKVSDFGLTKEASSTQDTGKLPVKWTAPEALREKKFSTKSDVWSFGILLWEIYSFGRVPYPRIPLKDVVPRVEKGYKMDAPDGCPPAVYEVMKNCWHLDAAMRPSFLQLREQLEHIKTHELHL
UniProt P12931: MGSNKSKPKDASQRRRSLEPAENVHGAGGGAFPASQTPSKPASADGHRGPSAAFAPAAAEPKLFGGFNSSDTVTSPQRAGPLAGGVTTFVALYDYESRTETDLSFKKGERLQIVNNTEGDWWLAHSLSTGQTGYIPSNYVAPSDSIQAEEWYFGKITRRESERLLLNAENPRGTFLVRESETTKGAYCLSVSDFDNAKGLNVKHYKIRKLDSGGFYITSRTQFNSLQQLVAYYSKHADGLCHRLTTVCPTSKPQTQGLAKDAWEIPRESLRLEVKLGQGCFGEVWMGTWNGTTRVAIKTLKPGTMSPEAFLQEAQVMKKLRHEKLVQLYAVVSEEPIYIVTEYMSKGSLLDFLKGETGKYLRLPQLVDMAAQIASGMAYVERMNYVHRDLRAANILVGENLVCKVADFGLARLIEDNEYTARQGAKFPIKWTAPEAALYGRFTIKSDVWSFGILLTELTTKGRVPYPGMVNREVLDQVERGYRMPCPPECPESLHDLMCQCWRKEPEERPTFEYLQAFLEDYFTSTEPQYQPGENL
UniProt P54764, whole entry: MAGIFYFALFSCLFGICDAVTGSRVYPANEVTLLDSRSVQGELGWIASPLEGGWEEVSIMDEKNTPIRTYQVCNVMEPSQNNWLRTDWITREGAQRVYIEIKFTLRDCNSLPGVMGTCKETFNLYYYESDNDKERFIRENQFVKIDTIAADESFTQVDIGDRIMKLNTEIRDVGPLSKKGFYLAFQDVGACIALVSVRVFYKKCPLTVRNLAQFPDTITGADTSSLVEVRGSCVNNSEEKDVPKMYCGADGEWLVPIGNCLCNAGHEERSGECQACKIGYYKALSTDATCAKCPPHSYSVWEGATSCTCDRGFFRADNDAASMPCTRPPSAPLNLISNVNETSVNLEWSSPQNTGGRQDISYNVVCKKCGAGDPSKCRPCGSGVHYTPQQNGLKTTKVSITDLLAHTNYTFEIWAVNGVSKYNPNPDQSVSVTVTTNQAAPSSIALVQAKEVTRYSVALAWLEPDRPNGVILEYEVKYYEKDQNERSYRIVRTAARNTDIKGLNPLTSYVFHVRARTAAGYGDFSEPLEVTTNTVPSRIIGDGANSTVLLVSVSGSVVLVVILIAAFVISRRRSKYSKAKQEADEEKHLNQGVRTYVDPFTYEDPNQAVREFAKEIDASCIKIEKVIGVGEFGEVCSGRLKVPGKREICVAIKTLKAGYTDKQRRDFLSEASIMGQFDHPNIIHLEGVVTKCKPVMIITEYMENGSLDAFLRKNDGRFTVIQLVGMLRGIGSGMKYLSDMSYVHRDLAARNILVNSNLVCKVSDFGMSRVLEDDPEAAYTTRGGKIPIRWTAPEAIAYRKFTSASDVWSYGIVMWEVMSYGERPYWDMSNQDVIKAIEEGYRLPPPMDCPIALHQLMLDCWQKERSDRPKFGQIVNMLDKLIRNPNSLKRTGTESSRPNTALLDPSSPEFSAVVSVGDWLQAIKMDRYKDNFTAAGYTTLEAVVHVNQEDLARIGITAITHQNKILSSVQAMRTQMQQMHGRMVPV
UniProt P11362, whole entry: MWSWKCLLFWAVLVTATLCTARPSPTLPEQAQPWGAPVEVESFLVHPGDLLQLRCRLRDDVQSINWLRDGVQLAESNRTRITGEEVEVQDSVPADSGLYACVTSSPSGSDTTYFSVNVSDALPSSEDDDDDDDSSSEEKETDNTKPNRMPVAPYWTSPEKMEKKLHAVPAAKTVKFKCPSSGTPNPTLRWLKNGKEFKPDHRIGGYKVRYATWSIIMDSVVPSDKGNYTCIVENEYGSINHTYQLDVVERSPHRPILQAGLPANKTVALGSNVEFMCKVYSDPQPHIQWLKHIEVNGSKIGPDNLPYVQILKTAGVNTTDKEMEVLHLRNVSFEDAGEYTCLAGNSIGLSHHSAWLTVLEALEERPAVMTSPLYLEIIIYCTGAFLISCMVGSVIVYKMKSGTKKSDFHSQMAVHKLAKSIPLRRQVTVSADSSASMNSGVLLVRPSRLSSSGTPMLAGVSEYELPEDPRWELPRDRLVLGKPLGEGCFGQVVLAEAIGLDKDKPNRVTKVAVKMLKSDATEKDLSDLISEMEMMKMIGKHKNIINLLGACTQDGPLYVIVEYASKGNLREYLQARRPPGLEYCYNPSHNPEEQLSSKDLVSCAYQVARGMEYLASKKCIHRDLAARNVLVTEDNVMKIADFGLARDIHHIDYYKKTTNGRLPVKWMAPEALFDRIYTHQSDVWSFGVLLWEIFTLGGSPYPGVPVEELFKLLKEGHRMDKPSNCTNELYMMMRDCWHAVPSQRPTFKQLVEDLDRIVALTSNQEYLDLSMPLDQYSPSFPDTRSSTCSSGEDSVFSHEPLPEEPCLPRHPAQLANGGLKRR
UniProt P21802, whole entry: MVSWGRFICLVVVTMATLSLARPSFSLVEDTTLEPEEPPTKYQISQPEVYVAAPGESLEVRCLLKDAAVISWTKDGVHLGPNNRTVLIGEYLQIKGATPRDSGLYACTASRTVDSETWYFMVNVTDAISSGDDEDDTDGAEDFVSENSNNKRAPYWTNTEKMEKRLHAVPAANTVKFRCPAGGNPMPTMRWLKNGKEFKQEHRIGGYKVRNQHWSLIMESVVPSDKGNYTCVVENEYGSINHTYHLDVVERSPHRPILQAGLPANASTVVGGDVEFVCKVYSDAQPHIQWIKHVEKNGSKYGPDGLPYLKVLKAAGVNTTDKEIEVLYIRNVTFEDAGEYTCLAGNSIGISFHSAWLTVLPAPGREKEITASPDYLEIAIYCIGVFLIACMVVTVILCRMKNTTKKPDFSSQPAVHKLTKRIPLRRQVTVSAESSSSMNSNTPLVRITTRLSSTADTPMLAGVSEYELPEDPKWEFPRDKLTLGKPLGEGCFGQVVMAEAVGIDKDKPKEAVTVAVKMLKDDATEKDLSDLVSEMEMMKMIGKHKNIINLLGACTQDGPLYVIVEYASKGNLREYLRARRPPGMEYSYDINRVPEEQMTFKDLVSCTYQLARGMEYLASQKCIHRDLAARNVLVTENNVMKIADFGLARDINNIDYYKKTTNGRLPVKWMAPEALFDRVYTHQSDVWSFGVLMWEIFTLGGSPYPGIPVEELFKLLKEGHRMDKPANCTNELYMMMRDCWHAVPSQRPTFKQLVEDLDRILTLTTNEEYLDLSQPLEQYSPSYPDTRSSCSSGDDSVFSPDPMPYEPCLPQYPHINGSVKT
UniProt P22455, whole entry: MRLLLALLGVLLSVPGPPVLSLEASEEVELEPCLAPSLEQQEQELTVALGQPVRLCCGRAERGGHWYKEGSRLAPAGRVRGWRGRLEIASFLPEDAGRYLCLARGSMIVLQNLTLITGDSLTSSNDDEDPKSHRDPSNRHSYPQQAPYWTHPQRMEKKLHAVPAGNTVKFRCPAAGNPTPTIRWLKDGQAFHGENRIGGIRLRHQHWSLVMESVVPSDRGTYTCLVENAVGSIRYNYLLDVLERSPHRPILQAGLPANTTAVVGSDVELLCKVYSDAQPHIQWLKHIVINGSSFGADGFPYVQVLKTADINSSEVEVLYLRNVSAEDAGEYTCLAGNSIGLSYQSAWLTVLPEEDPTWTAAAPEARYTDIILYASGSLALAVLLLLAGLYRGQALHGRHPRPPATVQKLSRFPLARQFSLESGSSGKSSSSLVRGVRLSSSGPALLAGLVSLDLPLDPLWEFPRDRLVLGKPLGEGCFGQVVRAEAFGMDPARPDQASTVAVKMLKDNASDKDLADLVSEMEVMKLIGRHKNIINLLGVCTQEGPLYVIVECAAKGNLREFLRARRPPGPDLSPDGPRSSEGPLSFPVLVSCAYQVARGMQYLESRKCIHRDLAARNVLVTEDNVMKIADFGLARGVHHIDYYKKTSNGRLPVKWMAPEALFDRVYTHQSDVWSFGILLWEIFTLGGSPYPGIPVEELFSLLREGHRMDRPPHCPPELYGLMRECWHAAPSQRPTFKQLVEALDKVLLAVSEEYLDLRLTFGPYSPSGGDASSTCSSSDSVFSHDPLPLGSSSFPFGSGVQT
UniProt Q16539, whole entry: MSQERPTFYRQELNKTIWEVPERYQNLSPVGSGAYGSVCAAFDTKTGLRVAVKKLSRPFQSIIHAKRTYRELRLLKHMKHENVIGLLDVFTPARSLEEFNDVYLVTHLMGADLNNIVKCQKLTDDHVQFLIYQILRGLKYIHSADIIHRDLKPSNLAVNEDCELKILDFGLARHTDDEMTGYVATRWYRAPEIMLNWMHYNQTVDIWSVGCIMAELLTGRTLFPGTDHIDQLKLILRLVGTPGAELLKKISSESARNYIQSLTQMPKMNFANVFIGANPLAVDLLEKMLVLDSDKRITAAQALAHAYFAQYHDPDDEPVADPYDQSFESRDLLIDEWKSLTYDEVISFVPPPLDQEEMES

Key:
[1] = target: T1, Tyrosine-protein kinase receptor UFO (Homo sapiens, UniProt P30530); assay: Inhibition of AXL using ATP as substrate
T1 sequence (P30530 whole entry): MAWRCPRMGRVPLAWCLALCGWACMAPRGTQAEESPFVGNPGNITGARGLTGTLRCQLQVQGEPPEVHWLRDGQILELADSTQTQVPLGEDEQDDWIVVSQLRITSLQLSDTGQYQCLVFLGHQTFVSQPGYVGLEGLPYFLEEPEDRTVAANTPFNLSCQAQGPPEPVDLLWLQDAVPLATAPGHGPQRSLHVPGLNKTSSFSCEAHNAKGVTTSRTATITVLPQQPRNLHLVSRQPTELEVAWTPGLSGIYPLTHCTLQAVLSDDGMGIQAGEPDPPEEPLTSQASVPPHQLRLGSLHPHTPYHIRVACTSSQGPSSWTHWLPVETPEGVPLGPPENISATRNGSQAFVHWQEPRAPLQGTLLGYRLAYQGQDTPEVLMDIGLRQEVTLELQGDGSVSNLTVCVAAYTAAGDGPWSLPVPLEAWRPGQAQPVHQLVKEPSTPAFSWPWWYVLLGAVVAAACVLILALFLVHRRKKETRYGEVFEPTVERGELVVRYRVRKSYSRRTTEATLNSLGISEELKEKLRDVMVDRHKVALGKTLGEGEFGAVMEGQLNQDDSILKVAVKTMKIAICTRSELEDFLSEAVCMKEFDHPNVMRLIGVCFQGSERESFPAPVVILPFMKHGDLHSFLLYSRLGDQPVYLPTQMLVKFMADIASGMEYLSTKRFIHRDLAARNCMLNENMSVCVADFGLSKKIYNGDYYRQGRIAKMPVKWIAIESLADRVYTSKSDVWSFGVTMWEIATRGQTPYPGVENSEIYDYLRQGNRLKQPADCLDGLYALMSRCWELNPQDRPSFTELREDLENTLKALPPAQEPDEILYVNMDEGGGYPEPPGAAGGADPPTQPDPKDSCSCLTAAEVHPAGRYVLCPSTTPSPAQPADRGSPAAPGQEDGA

[2] = target: Cyclin-dependent kinase 2 (Homo sapiens, UniProt P24941); assay: Inhibition of CDK2 using ATP as substrate
[3] = target: Hepatocyte growth factor receptor (Homo sapiens, UniProt P08581); assay: Inhibition of cMET using ATP as substrate
[4] = target: Tyrosine-protein kinase CSK (Homo sapiens, UniProt P41240); assay: Inhibition of CSK using ATP as substrate
[5] = target: Proto-oncogene tyrosine-protein kinase Src (Homo sapiens, UniProt P12931); assay: Inhibition of cSRC using ATP as substrate
Ephrin type-A receptor 4 = Ephrin type-A receptor 4 (Homo sapiens, UniProt P54764); assay: Inhibition of EphA4 using ATP as substrate
Ephrin type-B receptor 4 = target: T2, Ephrin type-B receptor 4 (Homo sapiens, UniProt P54760); assay: Inhibition of EphB4 using ATP as substrate
T2 sequence (P54760 whole entry): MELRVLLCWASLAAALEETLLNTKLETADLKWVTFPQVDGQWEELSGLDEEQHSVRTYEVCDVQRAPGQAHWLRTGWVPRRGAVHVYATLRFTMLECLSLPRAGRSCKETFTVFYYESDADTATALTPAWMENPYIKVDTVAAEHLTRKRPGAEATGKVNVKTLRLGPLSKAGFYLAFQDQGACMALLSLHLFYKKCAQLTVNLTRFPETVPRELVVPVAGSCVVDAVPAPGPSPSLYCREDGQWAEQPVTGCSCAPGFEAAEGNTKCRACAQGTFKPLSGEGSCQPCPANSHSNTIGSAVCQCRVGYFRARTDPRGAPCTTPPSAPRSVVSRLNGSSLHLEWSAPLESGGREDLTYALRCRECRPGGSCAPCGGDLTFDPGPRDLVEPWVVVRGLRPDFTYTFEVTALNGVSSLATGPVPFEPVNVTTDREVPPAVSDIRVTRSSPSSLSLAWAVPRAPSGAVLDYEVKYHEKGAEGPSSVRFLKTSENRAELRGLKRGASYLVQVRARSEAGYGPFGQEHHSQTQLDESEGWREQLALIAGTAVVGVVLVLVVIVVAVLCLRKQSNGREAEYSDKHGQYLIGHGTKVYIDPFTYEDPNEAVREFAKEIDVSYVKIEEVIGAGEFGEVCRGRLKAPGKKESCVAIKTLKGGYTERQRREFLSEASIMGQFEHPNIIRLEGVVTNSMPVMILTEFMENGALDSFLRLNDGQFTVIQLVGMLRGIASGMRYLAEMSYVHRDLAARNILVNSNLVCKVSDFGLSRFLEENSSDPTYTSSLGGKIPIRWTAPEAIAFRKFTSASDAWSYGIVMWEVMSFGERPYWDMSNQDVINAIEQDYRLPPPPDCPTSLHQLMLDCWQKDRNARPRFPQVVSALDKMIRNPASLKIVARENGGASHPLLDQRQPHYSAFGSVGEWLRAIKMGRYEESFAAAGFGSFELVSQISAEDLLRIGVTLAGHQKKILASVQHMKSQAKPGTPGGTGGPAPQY

[6] = target: Fibroblast growth factor receptor 1 (Homo sapiens, UniProt P11362); assay: Inhibition of FGFR1 using ATP as substrate
[7] = target: Fibroblast growth factor receptor 2 (Homo sapiens, UniProt P21802); assay: Inhibition of FGFR2 using ATP as substrate
[8] = target: Fibroblast growth factor receptor 4 (Homo sapiens, UniProt P22455); assay: Inhibition of FGFR4 using ATP as substrate
[9] = target: Tyrosine-protein kinase SYK (Homo sapiens, UniProt P43405); assay: Inhibition of SYK using ATP as substrate
[10] = target: T3, Tyrosine-protein kinase ZAP-70 (Homo sapiens, UniProt P43403); assay: Inhibition of ZAP70 using ATP as substrate
T3 sequence (P43403 whole entry): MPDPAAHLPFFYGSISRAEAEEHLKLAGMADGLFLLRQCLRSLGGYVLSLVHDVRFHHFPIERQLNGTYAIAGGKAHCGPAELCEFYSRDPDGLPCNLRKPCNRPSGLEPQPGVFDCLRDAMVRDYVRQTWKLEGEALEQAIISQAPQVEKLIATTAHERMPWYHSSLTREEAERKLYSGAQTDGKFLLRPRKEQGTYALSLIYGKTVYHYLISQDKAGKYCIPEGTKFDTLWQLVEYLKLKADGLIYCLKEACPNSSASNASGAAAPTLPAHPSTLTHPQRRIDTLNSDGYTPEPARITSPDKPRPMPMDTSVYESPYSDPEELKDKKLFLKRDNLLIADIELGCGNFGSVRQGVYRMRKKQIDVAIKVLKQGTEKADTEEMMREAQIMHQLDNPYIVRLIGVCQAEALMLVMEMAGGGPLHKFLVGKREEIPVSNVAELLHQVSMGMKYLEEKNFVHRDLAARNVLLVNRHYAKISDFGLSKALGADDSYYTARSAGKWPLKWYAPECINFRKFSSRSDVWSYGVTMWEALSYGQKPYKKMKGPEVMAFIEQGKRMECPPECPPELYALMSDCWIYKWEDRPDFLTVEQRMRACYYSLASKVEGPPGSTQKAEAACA

[11] = target: T4, Tyrosine-protein kinase JAK3 (Homo sapiens, UniProt P52333); assay: Inhibition of JAK3 using ATP as substrate
T4 sequence (P52333 whole entry): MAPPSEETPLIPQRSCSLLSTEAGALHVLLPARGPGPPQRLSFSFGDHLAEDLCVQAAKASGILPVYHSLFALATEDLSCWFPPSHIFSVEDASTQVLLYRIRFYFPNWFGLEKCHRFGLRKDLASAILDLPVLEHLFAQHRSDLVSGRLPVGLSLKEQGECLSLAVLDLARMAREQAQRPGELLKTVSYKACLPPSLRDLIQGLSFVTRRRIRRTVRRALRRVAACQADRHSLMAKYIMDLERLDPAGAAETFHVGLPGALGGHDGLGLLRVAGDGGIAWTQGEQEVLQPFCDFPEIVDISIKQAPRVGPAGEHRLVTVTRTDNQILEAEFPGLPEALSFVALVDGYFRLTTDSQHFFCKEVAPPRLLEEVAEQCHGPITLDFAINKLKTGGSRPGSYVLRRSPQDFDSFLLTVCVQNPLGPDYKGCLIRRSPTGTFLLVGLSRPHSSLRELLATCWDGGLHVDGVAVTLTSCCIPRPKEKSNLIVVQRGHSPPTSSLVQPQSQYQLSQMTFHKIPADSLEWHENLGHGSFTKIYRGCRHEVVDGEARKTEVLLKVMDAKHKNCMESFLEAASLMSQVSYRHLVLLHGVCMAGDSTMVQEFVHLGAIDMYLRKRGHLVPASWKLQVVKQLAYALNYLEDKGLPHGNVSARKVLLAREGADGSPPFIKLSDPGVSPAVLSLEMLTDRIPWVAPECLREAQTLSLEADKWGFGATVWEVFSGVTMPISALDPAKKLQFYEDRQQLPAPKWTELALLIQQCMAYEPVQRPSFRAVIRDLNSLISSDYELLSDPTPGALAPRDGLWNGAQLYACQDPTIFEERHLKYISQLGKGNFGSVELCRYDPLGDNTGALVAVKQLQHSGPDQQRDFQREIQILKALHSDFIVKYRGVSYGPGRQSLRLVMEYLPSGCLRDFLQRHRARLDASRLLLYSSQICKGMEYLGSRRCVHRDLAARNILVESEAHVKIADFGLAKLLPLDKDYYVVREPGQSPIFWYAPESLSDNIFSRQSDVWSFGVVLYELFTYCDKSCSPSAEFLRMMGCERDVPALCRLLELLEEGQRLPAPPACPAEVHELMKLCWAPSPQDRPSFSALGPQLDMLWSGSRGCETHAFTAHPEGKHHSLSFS

[12] = target: Mitogen-activated protein kinase 14 (Homo sapiens, UniProt Q16539); assay: Inhibition of p38alpha using ATP as substrate

Measured: IC50

Cn1c2c(c3ccc(Cl)c(Cl)c31)C(C#N)C1(CCNCC1)NC2=O (racemic)
> 10 µM: all assays above
